Earlier results, collected in PMC7615502.
pKd: −log10 of the molar value.

Sequences of proteins named here, by UniProt entry; tags and fusion partners are left off. Residues count along the entry.
UniProt P01589, 22-240, chain 1 of 3: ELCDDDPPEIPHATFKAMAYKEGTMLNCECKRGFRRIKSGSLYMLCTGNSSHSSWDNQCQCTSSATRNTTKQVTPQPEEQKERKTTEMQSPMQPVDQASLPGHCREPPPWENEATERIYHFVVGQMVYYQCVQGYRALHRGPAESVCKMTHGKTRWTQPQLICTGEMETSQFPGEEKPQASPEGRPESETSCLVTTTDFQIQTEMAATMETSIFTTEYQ
UniProt P60568, 21-153: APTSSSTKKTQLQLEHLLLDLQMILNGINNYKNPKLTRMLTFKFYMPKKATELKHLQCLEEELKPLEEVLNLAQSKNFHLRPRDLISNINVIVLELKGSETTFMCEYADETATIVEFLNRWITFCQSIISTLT

Target: IL-2Rαβγ (Homo sapiens) (UniProt P01589)

pKd: 11.00
Substance: IL-2 (from UniProt P60568)
